PubChem BioAssay AID1242 (PCMD, 2008)
This is a selection; strong and weak results do not stand in their true shares. Some structures show a salt or complex split into parts, the way the source records it. Active and inactive are the calls of the source.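 The calls were made as follows: active = inhibition above 30.3% in the primary screen of four-compound pools, then above 30% when the compound was retested; inconclusive = passed the primary limit but could not be retested; inactive = the rest.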

Assay: Candida albicans biofilm persister killing – 4-compound mixtures, primary screen (AID 1242);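 also: compounds exposed to preformed 24 h biofilms for 48 h; 0% = untreated biofilm control and 100% = clotrimazole plus chlorhexidine kill blank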
Conditions: C. albicans biofilm persisters + clotrimazole, fluorescence viability; primary screen in compound mixtures of four per well; at 7.6 µM; active compounds read high

Structure (SMILES)	inhibition
CCNC(=S)/N=C(\N)N[N+](=O)[O-]	inactive: 8.97%
O=C(NC1CCS(=O)(=O)C1)NP(=S)(Oc1ccccc1)Oc1ccccc1 (stereo not given)	inactive: 19.5%
Cc1ccc(NP(=O)(Oc2cccc(C)c2)Oc2cccc(C)c2)nc1	inactive: 7.51%
c1ccc(-c2nn[nH]n2)c(-c2nn[nH]n2)c1	inactive: 20.1%
CCOC(=O)c1ccc(NP(C)(=O)Oc2ccc(F)cc2)cc1 (stereo not given)	inactive: 18%
COc1ccc(OP(C)(=O)Nc2ccc(SC(F)(F)F)cc2)cc1 (stereo not given)	inactive: 5.99%
CC(=O)NC(SC(=S)N(CC(C)C)CC(C)C)C(Cl)(Cl)Cl (stereo not given)	inactive: 10.9%
Cc1ccc(OP(=O)(Nc2ccccn2)Oc2ccc(C)cc2)cc1	inactive: -1.41%
CCN(CC)CCCOC(=O)C(O)(c1ccccc1)C1CCCCC1 (stereo not given)	inactive: 15.8%
O=c1c2cc([N+](=O)[O-])ccc2[nH]c2c([N+](=O)[O-])cc([N+](=O)[O-])cc12	inactive: 24%
CCCCCOc1ccc(NP(C)(=O)Oc2ccc(Cl)cc2Cl)cc1 (stereo not given)	inactive: 3.32%
CN(C)C(=O)Oc1noc2ccccc12	inactive: 30.9%
Cc1ccccc1OP(=O)(Nc1ccccn1)Oc1ccccc1C	inactive: 22.6%
CCOc1ccc(C2=NCC(CBr)S2)cc1 (stereo not given)	inactive: 8.53%
CC(C)c1ccc(OP(C)(=O)Nc2ccc(SC(F)(F)F)cc2)cc1 (stereo not given)	inactive: 6.71%
CC(C)(C)C(=O)NC(Sc1ccccc1)C(Cl)(Cl)Cl (stereo not given)	inactive: 11.8%
O=C(OC1CN2CCC1CC2)c1ccc([N+](=O)[O-])cc1 (stereo not given)	inactive: 15.1%
C[C@H]1OP(=O)(Oc2ccccc2)C[C@@H]2O[C@@H]21 (stereo not given in full)	inactive: 19.8%
C[C@@H]1C=CCP(=O)(Oc2ccccc2)O1 (stereo not given in full)	inactive: 16.3%
O=C(OCCN1CCN(CCOCc2ccccc2)CC1)C(O)(c1ccccc1)c1ccccc1	inactive: 13.1%
CC(=O)Nc1ccc(Oc2c([N+](=O)[O-])cc([N+](=O)[O-])cc2[N+](=O)[O-])cc1	inactive: 11.9%
CC(=O)Nc1ccc([As](=O)(O)O)c(O)c1	inactive: 16.9%
COc1ccc2c(c1O)-c1c(O)c(OC)cc3c1[C@H](C2)[N+](C)(C)CC3.O=[N+]([O-])c1cc([N+](=O)[O-])c([O-])c([N+](=O)[O-])c1[O-]	inactive: 9.65%
CP(=O)(Nc1ccc(SC(F)(F)F)cc1)Oc1ccc(F)cc1 (stereo not given)	inactive: 29.7%
CC(C)C(=O)NC(Sc1ccccc1)C(Cl)(Cl)Cl (stereo not given)	inactive: 1.17%

Structure (SMILES)	inhibition
O=P(Nc1ccccn1)(c1ccc(Br)cc1)c1ccc(Br)cc1	inactive: 17%
C[C@H]1OP(=O)(Oc2ccccc2)[C@H](O)[C@H](O)[C@H]1N=[N+]=[N-] (stereo not given in full)	inactive: 19.1%
O=P(Nc1nc2ccccc2s1)(c1ccccc1)c1ccccc1	inactive: 20.6%
COc1ccc(NP(C)(=O)Oc2ccccc2OC)cc1 (stereo not given)	inactive: 22.2%
CC(=O)NC(SC(=S)N(C)C)C(Cl)(Cl)Cl (stereo not given)	inactive: 12.3%
O=[N+]([O-])c1ccc(OP2(=O)COCCO2)cc1 (stereo not given)	inactive: 18.4%
O=[N+]([O-])c1ncn(CCn2cnc([N+](=O)[O-])n2)n1	inactive: 3.62%
Cc1cc(-c2cccc3ccccc23)c(C)cn1.O=[N+]([O-])c1cc([N+](=O)[O-])c(O)c([N+](=O)[O-])c1	inactive: 13.9%
O=[N+]([O-])c1cc([N+](=O)[O-])c(NCC2CCS(=O)(=O)C2)c([N+](=O)[O-])c1 (stereo not given)	inactive: 9.8%
O=[As](O)(c1ccccc1)c1ccc(O)cc1	inactive: 19.3%
C(Cc1nn[nH]n1)Cc1nn[nH]n1	inactive: 13%
Nc1ccc([As](=O)(O)c2ccc([N+](=O)[O-])cc2)cc1	inactive: 11.1%
O=C(Nc1cc([As](=O)(O)O)ccc1O)c1ccccc1	inactive: 11.9%
CCOC(=O)c1ccc(NP(C)(=O)Oc2ccc(Cl)cc2)cc1 (stereo not given)	inactive: 9.76%
CC(C)(C)C(=O)NC(Sc1ccncn1)C(Cl)(Cl)Cl (stereo not given)	inactive: 14.8%
O=[N+]([O-])c1ncn(CCn2ncnc2[N+](=O)[O-])n1	inactive: 15.3%
O=[N+]([O-])c1cccc(NC2=NCC(CBr)S2)c1 (stereo not given)	inactive: 12.6%
O=C(O)CNc1ccc([As](=O)(O)O)cc1	inactive: 9.72%
COc1ccc(OP(C)(=O)Nc2ccc(Br)cc2)cc1 (stereo not given)	inactive: 9.21%
COc1ccc(C2=NCC(CBr)S2)cc1 (stereo not given)	inactive: 15.4%
O=C(OCCCN1CCCC1)C(O)(c1ccccc1)C1CCCCC1 (stereo not given)	inactive: 6.48%
CCc1ccc(OP(C)(=O)Nc2cccnc2)cc1 (stereo not given)	inactive: 9.99%
O=[N+]([O-])c1cc([N+](=O)[O-])c(CCNc2ccccc2)c([N+](=O)[O-])c1	inactive: 19.8%
Cc1ccc(NP(=O)(Oc2ccccc2)Oc2ccccc2)nc1	inactive: 9.16%
C[N+]1=C2C=CC=CC=C2SC12C([N+](=O)[O-])=CC([N+](=O)[O-])=C[C-]2[N+](=O)[O-] (stereo not given)	inactive: 17.4%
